Chains of the proteins cited; added tags and fusions are not shown. Residues count along the entry.
UniProt P24046, 22-479: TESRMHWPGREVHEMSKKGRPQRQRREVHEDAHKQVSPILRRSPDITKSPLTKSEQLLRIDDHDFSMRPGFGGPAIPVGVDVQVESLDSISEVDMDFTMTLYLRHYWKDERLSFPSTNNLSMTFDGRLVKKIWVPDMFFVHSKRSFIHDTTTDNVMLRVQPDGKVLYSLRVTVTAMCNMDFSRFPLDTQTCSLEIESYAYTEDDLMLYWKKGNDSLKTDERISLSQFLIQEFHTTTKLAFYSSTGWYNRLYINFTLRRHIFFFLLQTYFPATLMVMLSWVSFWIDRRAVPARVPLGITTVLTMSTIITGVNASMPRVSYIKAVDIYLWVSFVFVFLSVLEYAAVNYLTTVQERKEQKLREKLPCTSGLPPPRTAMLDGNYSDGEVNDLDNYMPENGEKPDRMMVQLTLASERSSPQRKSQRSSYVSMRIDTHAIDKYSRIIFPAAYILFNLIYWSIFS

In PMC8780768 (Life, 2022):

Target: T1, GABA-ρ1 receptors (Homo sapiens, UniProt P24046)
T1 construct: expressed in transfected cells; host or cells: Xenopus laevis oocytes injected with cRNA
Experiment: Two-electrode voltage-clamp, co-application of ligand with GABA EC50 at GABA-ρ1 receptors (additive/inhibition)
Format: cell-based
Settings: co-application curve with GABA EC50
Description: The activity of receptors was tested by recording whole cell currents using the two-electrode voltage clamp technique as previously reported. In brief, fabricated microelectrodes prepared with a micropipette puller (Sutter instruments, Novato, CA, USA), were filled with 3 M KCl solution (0.3–2.3 MΩ). Oocytes were immersed with ND96 buffer in the cell chamber at approximately 5 mL/min rate. The microelectrode impaled cells were clamped at −60 mV (voltage), and the currents elicited in response to the application of ligand/s was recorded using a Power Lab 2/25 analogue–digital data acquisition system (AD Instruments, Sydney, NSW, Australia), a Geneclamp 500 B amplifier (Axon Instrument, Foster City, CA, USA), and Lab Chart version 5.0.2 program (ADInstruments, Sydney, Australia).
Ligands were applied into the perfusate until a peak response (maximal) was reached. All stock solutions of the ligands were freshly made on the day of experiments. Solutions of ligands dissolved in DMSO were standardized to contain less than 0.8% DMSO in the final perfusate solution to prevent any alteration in the recordings. Perfusates containing these ligands (chemicals) were freshly prepared before each application. The dose–response curves of ligands were obtained by increasing the concentrations of applied agonists on oocytes until the maximum current reached. […]

Question: For `NCC(=O)O` [Glycine, glycine], which “GABA-ρ1 Additive/Inhibition Hill slope” value is on record?
Answer: Its value is 1.23 ± 0.42.
